44 compounds from PubChem BioAssay AID2130 (The Scripps Research Institute Molecular Screening Center, 2009) can be followed below.

Sequences of proteins named here, by UniProt entry; tags and fusion partners are left off. A change or cut given only in a name is not applied to a line headed by its entry.
UniProt Q9Y570: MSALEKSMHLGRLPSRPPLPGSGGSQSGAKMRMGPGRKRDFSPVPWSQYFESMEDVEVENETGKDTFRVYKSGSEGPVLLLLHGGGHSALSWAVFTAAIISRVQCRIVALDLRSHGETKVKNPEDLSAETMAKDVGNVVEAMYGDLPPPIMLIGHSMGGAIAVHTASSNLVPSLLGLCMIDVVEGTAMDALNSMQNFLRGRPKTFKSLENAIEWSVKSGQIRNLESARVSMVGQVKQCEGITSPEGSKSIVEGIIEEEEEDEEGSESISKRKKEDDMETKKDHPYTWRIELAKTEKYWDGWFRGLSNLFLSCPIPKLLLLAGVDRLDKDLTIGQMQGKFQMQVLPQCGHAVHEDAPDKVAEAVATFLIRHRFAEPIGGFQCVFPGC

A word on the inhibition: it is the drop in the measured response relative to a control, in per cent.

The structures appear in SMILES notation. This is a selection; strong and weak results do not stand in their true shares. Active and inactive are the calls of the source.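 How the source made its calls: active means inhibition above the campaign mean of all compounds plus 3 SD (cut at about 26% in these data); inactive means the rest.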

This test deals with Protein phosphatase methylesterase 1 (Homo sapiens) (UniProt Q9Y570). In words: PME-1 inhibitors via competitive probe labeling, primary screen, biochemical, fluorescence polarization, FP-Rh probe, HTS (AID 2130).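 Further: competitive labeling of PME-1 active site by serine hydrolase directed probe; 0% = PME-1 with DMSO and 100% = wells lacking PME-1 enzyme; inhibitors block probe labeling so polarization falls and inhibition rises.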 The conditions noted are these: recombinant PME-1, FP-Rh probe fluorescence polarization; at 5.9 µM; stronger effect = higher value. A general note: In fluorescence polarisation assays a small probe gives low polarisation when free and higher when bound to something large.
With `O=[As](O)(c1ccccc1Br)c1ccccc1Br`, the inhibition is inactive: -4.33%.
The result for `COc1ccccc1CNC(=O)COC(=O)C(O)(c1ccccc1)c1ccccc1` reads inactive: 0.78%; that for `CC(C)(C)C(=O)NC(Sc1ncccn1)C(Cl)(Cl)Cl` (centres undefined), inactive: 0.71%.
The result for `Clc1n[nH]nc1-c1nn[nH][15n]1` reads inactive: -4.15%; that for `CCOP(=O)(NC(=NC(C)c1ccccc1)NC(C)c1ccccc1)OCC` (centres undefined), inactive: -0.23%; that for `O=P1(Nc2ccccn2)COc2ccccc2OC1`, inactive: -1.23%.
The result for `CCC1=CC2Cc3nc4ccc(Cl)cc4c(N)c3C(C1)C2` (centres undefined) reads inactive: -122%.
`CN(CCCl)Cc1cc(Cl)c(NC2=NCCN2)c(Cl)c1`: the inhibition is inactive: -1.18%.
Under `CCOP(=O)(Nc1ccc(C)cn1)OCC` stands inactive: 0.01%.
Under `Nc1cccc([As](=O)(O)c2ccccc2)c1` stands inactive: -4.41%; under `O=P1(Nc2ccc(Br)cn2)COc2ccccc2OC1`, inactive: -0.27%.
The result for `NS(=O)(=O)c1cccc(NC(=O)COC(=O)C(O)(c2ccccc2)c2ccccc2)c1` reads inactive: 3.24%; that for `Cc1ccc(OCC(=O)OC2CN3CCC2CC3)cc1` (centres undefined), inactive: -0.72%.
In the case of `O=[As](O)(c1cccs1)c1cccs1`, the inhibition was inactive: -2.19%.
Under `O=P1(Nc2ncccn2)COc2ccccc2OC1` stands inactive: 6.61%.
Under `CN(C)C1(CNC(=O)c2ccc(S(C)(=O)=O)cc2)CCCCC1` stands inactive: 3.32%; under `O=C(/C=C/c1ccccc1)OC1CN2CCC1CC2` (centres undefined), inactive: -4.41%.
The result for `CC1CCC(C(C)C)C(OP(=O)(Nc2ccccn2)c2ccccc2)C1` (centres undefined) reads inactive: 4.78%; that for `Cc1ccc(C(=O)OC2CN3CCC2CC3)cc1` (centres undefined), inactive: -7.87%.
As to `Cc1nn(-c2ccccc2)c2c1P(=O)(N1CCOCC1)N(C)C(c1ccccc1)=N2` (centres undefined), the inhibition was inactive: -0.66%.
Under `CN(C(=O)Cc1ccccc1)[C@@H]1CC[C@]2(CCCO2)C[C@H]1N1CCCC1` stands inactive: -0.48%.
In the case of `CCOP1(=S)c2c(C)nn(CCC#N)c2N=C(c2ccc(F)cc2)N1C` (centres undefined), the inhibition was inactive: 0.65%.
The result for `N#CCCN(C(=O)COC(=O)C(O)(c1ccccc1)c1ccccc1)c1ccc(F)cc1` reads inactive: -3.33%; that for `CN(C(=O)Cc1ccc(Cl)c(Cl)c1)[C@H]1CC[C@@]2(CCCO2)C[C@@H]1N1CCCC1`, inactive: -1.35%.
For the compound `CN(C)C(=O)c1cc([N+](=O)[O-])cc2c1-c1c(cc([N+](=O)[O-])cc1[N+](=O)[O-])C2=O`, the inhibition is active: 54.6%.
Regarding `O=[N+]([O-])c1ccc2c(c1)nnn2O`, the inhibition was inactive: 3.66%.
The result for `NC(=O)Nc1ccc([As](=O)(O)O)cc1` reads inactive: -0.66%; that for `Nc1ccccc1[As](=O)(O)c1ccccc1`, inactive: -1.5%; that for `O=C(O)COc1ccc([As](=O)(O)O)cc1[N+](=O)[O-]`, inactive: -4.08%.
The result for `O=P(Nc1nccs1)(c1ccccc1)c1nc2ccccc2s1` (centres undefined) reads inactive: -3.65%; that for `O=P(Nc1nccs1)(Oc1ccccc1)Oc1ccccc1`, inactive: -0.22%; that for `CCOP1(=S)c2c(C)nn(CCC#N)c2N=C(c2ccccc2F)N1C` (centres undefined), inactive: 4.59%.
The result for `CS(=O)(=O)c1cc([N+](=O)[O-])c2no[n+]([O-])c2c1` reads inactive: -3.06%; that for `CCOP(=O)(Nc1cccc2ccccc12)OCC`, inactive: 0.04%; that for `COc1cc(C2NCCC3(OCCO3)C2(C)C)cc(OC)c1OC` (centres undefined), inactive: 2.16%.
For the compound `Cc1ccc(NCCc2c([N+](=O)[O-])cc([N+](=O)[O-])cc2[N+](=O)[O-])cc1`, the inhibition was inactive: 2.46%.
The result for `Nc1cccc2c([As](=O)(O)O)cccc12` reads inactive: 24.1%; that for `CCCOP(=S)(Nc1nc(N)cc(=O)[nH]1)OCCC`, inactive: -1.02%.
Under `O=[As](O)(c1cccc(O)c1)c1cccc(O)c1` stands inactive: -0.56%; under `Cc1cccc(OCC(=O)OC2CN3CCC2CC3)c1` (centres undefined), inactive: -0.93%; under `O=C(OC1CN2CCC1CC2)c1ccc(Cl)cc1` (centres undefined), inactive: 2.79%.
The result for `CS(=O)(=O)c1ccc(Cl)c(NC(=O)COC(=O)C(O)(c2ccccc2)c2ccccc2)c1` reads inactive: 7.3%.
In the case of `COc1cc(C(=O)NCC2(N3CCOCC3)CCCCC2)cc(Cl)c1OC(C)C`, the inhibition was inactive: 0.09%.
Under `O=[As](O)(O)c1cccnc1` stands inactive: 1.84%.
